From doi:10.1101/2022.02.05.479199 (bioRxiv, 2022) come the findings set out here.

For this assay, the target named is Rad52 (S. cerevisiae) (S. cerevisiae, UniProt P06778). The assay is described as follows: AUC.

B1: Replication protein A (Saccharomyces cerevisiae RPA) (complex)
chain 1: MSSVQLSRGDFHSIFTNKQRYDNPTGGVYQVYNTRKSDGANSNRKNLIMISDGIYHMKALLRNQAASKFQSMELQRGDIIRVIIAEPAIVRERKKYVLLVDDFELVQSRADMVNQTSTFLDNYFSEHPNETLKDEDITDSGNVANQTNASNAGVPDMLHSNSNLNANERKFANENPNSQKTRPIFAIEQLSPYQNVWTIKARVSYKGEIKTWHNQRGDGKLFNVNFLDTSGEIRATAFNDFATKFNEILQEGKVYYVSKAKLQPAKPQFTNLTHPYELNLDRDTVIEECFDESNVPKTHFNFIKLDAIQNQEVNSNVDVLGIIQTINPHFELTSRAGKKFDRRDITIVDDSGFSISVGLWNQQALDFNLPEGSVAAIKGVRVTDFGGKSLSMGFSSTLIPNPEIPEAYALKGWYDSKGRNANFITLKQEPGMGGQSAASLTKFIAQRITIARAQAENLGRSEKGDFFSVKAAISFLKVDNFAYPACSNENCNKKVLEQPDGTWRCEKCDTNNARPNWRYILTISIIDETNQLWLTLFDDQAKQLLGVDANTLMSLKEEDPNEFTKITQSIQMNEYDFRIRAREDTYNDQSRIRYTVANLHSLNYRAEADYLADELSKALLA
chain 2: MATYQPYNEYSSVTGGGFENSESRPGSGESETNTRVNTLTPVTIKQILESKQDIQDGPFVSHNQELHHVCFVGVVRNITDHTANIFLTIEDGTGQIEVRKWSEDANDLAAGNDDSSGKGYGSQVAQQFEIGGYVKVFGALKEFGGKKNIQYAVIKPIDSFNEVLTHHLEVIKCHSIASGMMKQPLESASNNNGQSLFVKDDNDTSSGSSPLQRILEFCKKQCEGKDANSFAVPIPLISQSLNLDETTVRNCCTTLTDQGFIYPTFDDNNFFAL
chain 3: MASETPRVDPTEISNVNAPVFRIIAQIKSQPTESQLILQSPTISSKNGSEVEMITLNNIRVSMNKTFEIDSWYEFVCRNNDDGELGFLILDAVLCKFKENEDLSLNGVVALQRLCKKYPEIY
B1: the binding result is listed as “binds”.
